{
  "source": "ChEMBL document CHEMBL4014334",
  "about": "“BET Bromodomain Inhibitors with One-Step Synthesis Discovered from Virtual Screen” (J Med Chem, 2017)",
  "test_system": "MM1.S",
  "experiment": "Cytotoxicity against human MM1S cells assessed as reduction in cell viability after 72 hrs by MTT assay",
  "assay_type": "functional, cell-based",
  "data": [
    {"smiles": "CCn1c2c(c(=O)[nH]c1=O)C(c1ccc(C)cc1)C1=C(CN(CCc3ccc(O)cc3)C1=O)N2", "note": "(stereo unspecified)", "values": [
      {"measurement": "IC50", "value": 460, "unit": "nM"}
    ]}
  ]
}
